Literature values, collected in article PMC11253567, “Drug repurposing of pyrazolotriazine derivatives as potential anti-SARS-CoV-2 agents: in vitro and in silico studies” (BMC Chemistry, 2024).

System: SARS-CoV-2 (hCoV-19/Egypt/NRC-03/2020)
Conditions: reference drug; cited from earlier work

## CCC(CC)COC(=O)[C@H](C)N[P@](=O)(OC[C@H]1O[C@@](C#N)(c2ccc3c(N)ncnn23)[C@H](O)[C@@H]1O)Oc1ccccc1 [Remdesivir]
  SI (CC50/IC50): 17.18
